Source: ChEMBL document CHEMBL5725483, “Pyrrolopyrimidine derivatives as TAM inhibitors” (2018)

target: T1, Phosphatidylinositol 4,5-bisphosphate 3-kinase catalytic subunit delta isoform (Homo sapiens, UniProt O00329); experiment: PI3K Delta Assay: In some embodiments, the PI3Kδ inhibitor is selective. By ¿selective¿ is meant that the compound binds to or inhibits a kinase with greater affinity or potency, respectively, compared to at least one other kinase. In some embodiments, the PI3Kδ inhibitors are selective inhibitors of PI3Kδ (e.g., over PI3Kα, PI3Kβ and PI3Kγ). In some embodiments, selectivity can be at least about 2-fold, 5-fold, 10-fold, at least about 20-fold, at least about 50-fold, at least about 100-fold, at least about 200-fold, at least about 500-fold or at least about 1000-fold. Selectivity can be measured by methods routine in the art. In some embodiments, selectivity can be tested at the Km ATP concentration of each enzyme. In some embodiments, the selectivity of compounds described herein can be determined by cellular assays associated with particular PI3K kinase activity.
T1 sequence (O00329 whole entry): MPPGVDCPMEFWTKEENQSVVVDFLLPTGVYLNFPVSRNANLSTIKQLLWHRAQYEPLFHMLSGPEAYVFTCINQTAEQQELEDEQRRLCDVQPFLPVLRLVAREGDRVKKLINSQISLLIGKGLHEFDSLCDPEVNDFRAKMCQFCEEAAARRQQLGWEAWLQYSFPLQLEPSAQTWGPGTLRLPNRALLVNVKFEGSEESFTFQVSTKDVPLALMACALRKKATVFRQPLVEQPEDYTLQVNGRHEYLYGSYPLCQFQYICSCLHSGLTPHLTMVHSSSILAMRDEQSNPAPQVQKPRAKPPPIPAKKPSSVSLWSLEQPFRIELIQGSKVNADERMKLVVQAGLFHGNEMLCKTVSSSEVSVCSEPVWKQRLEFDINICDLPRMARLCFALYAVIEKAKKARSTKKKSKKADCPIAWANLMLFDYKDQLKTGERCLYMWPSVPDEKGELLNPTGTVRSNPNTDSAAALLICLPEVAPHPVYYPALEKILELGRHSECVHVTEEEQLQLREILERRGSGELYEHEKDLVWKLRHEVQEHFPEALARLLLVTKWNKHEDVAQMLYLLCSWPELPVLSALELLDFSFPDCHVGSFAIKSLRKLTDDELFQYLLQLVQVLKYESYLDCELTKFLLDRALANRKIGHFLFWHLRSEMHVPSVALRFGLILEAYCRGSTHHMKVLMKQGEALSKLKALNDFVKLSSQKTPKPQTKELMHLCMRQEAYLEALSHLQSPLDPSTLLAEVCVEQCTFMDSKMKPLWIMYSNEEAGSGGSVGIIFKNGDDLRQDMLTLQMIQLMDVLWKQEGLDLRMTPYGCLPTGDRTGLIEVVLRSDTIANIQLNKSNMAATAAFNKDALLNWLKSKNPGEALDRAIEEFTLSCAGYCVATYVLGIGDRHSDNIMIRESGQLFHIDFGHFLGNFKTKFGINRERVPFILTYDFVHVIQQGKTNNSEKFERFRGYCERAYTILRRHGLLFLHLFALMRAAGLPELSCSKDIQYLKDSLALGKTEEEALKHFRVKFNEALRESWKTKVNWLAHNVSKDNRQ

SMILES | IC50 [nM]
Cc1csc2nc(C(C)Nc3ncnc4[nH]cnc34)c(-c3cccc(F)c3)c(=O)n12 (stereo not drawn) | < 50
Cc1csc2nc([C@H](C)Nc3ncnc4[nH]cnc34)c(-c3cccc(F)c3)c(=O)n12 [DEZAPELISIB] | < 50
CC(Nc1ncnc2[nH]cnc12)c1cc(Cl)c2ccnnc2c1-c1cccc(F)c1 (single isomer, unassigned) | < 50
